Measured affinities in a library of Ab-14 heavy chain variants

Binding partner: SARS-CoV-2 spike HR2 peptide, sequence PDVDLGDISGINAS.

Each scFv is VH, a (GGGGS)3 linker, VL, as in the parent Ab-14, and differs from it in the CDRs of the heavy chain only.
VH: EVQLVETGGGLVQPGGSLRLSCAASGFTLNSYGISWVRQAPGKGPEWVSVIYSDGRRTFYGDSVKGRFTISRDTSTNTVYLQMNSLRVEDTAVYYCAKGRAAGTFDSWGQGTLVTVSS
VL: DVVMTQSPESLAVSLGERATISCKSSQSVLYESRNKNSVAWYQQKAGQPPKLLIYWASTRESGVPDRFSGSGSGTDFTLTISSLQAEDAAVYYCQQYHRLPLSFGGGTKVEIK

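In library AAYL49, one, two or three CDR residues were substituted; doubles and triples were drawn at random. The assay is AlphaSeq: two haploid yeast populations carry antibody and antigen on their surface. The frequency of each diploid, read from paired DNA barcodes, reflects how well the two displayed proteins bind. Scores were corrected for input abundance and mapped to Kd with protein pairs of known affinity run in the same pool. The assay was run in three technical replicates.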

Substitutions are numbered in sequence along the VH above, starting at 1 (not Kabat). All variants listed here change G55 of the VH, counted from its first residue. Numbers give log10(Kd / nM), so 0 is 1 nM and 3 is 1 µM. Smaller is tighter. Averages over replicates are reported, and they cover detected replicates only. Where no diploid with the target was found in that replicate, the entry reads "nd": below detection, most likely a poor binder, though not proof of it.

The variant G55H/V64T/A101K gave nd, nd, nd. The variant F27H/I51R/G55R showed nd, nd, nd. With S53E/G55W/R56I the result was nd, nd, nd. The variant G55A/G61C/R100M gave nd, nd, nd. With G55D/R56E/R100A the result was nd, nd, nd.

With G55I/Y60D/K65P the result was nd, 2.73, nd. The variant G55P/V64E/D106L gave nd, nd, nd. With S35P/G55V/G61Q the result was nd, 3.90, nd. For I34H/Y52C/G55K, the assay gave nd, 5.55, nd. For S31I/G55F/Y60D, the assay gave nd, nd, nd.

For I34A/S35I/G55H, the assay gave nd, nd, nd. For S35Q/G55P/K65Y, the assay gave nd, nd, nd. For G55W/F59W/T104H, the assay gave nd, 3.34, nd. For I34V/G55I/T58W, the assay gave nd, nd, nd. The variant G55S/R57D showed nd, nd, nd.

With G55S/F59Y/F105E the result was nd, nd, nd. The variant Y52W/G55T/Y60N gave nd, nd, 5.20. The variant L29F/G55K/F59E gave 4.94, nd, 5.40 (mean 5.17). For T28P/G55T/K65F, the assay gave 5.24, nd, nd. The variant S53D/G55V gave nd, nd, nd.

With G55R/R57E/V64G the result was nd, nd, nd. For G55P/T58P, the assay gave nd, nd, nd. The variant S53E/G55P/Y60C gave nd, nd, nd. For T28L/G55V/F59Y, the assay gave nd, nd, nd. The variant G55I/D62M/F105G showed nd, nd, nd.

The variant Y32S/G33Y/G55E gave nd, nd, nd. The variant S31M/V50W/G55R showed nd, nd, nd. The variant I51H/G55Y/T58F gave nd, nd, nd. The variant I51Y/G55S/Y60H showed nd, 3.42, nd. For G55C/G61Y/A101W, the assay gave nd, nd, nd.

The variant G55F/G99I/G103Y showed nd, nd, nd. The variant I34E/G55T showed nd, nd, nd. The variant G55A/D62L/S107R showed nd, nd, nd. With G55R/T104A the result was nd, 4.37, nd. The variant S35T/G55T/A102K showed nd, nd, nd.

The variant T28E/G55R/Y60T gave nd, nd, nd. For S53N/G55C/K65D, the assay gave 3.97, nd, nd. With L29H/G55D/G99W the result was nd, nd, nd.

Extract of 4 entries:

Variant S53D/G55V showed nd, nd, nd.
Variant G55P/T58P showed nd, nd, nd.
Variant S53E/G55P/Y60C showed nd, nd, nd.
Variant G55R/R57E/V64G showed nd, nd, nd.

In this assay the parent's reference entry averaged 0.65; its copy inside this library read 4.11 (one replicate of three). As a blank, each scFv also met three strains without target: over library AAYL49, 15% of these pairings were detected, typically at 4.06 and seldom below 2.83.

Data: MIT Lincoln Laboratory AlphaSeq set, Engelhart et al. 2022, doi:10.1038/s41597-022-01779-4, as distributed in FLAb.